In US6936585B2, “Corticotropin releasing factor 2 receptor agonists” (priority 2002, dated 2005) one finds Emax data, which are given here for three molecules.

The target of experiment [1] is T1, CRF1R (Homo sapiens, UniProt P34998).
T1 sequence (P34998 24-415): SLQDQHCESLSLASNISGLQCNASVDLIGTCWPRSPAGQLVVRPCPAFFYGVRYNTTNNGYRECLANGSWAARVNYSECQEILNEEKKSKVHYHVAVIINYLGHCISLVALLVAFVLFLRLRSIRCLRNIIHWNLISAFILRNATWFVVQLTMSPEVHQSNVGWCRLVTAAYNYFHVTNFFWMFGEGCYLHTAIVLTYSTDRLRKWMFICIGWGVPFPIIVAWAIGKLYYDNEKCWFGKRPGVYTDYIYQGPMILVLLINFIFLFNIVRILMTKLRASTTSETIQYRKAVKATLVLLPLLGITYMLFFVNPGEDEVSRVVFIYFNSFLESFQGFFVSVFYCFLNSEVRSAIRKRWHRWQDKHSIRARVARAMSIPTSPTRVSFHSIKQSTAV
In words: CRF1R agonist activation (EC50 / Emax), called comparative CRF binding. It counts as cell-based. The note with it: read-out: CRF1R Emax. In short, it runs like this: (§1)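 Receptor-expressing cells are contacted with test peptide or the vehicle it is dissolved in. Lysates are then assayed for cAMP, or expression of a CRE-coupled reporter is quantitated. Engineered cells carrying receptor-G-protein fusions may replace full-length receptors.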

Experiment [2] deals with T2, CRF2R (Homo sapiens, UniProt Q13324).
T2 sequence (Q13324 1-411): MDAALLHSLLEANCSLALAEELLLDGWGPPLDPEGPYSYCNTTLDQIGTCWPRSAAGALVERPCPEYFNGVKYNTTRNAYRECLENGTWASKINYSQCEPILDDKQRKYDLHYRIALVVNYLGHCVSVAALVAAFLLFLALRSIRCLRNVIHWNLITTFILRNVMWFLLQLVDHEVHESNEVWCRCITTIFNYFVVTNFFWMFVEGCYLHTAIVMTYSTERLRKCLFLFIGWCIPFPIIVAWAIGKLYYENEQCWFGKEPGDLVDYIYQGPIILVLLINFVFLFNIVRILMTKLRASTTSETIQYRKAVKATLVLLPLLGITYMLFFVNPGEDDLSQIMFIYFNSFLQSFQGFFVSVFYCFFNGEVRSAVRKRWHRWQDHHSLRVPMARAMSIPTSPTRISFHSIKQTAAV
Briefly: CRF2R agonist activation (EC50 / Emax), called comparative CRF binding. To be noted: read-out: CRF2R Emax. It is filed as cell-based. In outline: as §1

Broadly, the Emax is the greatest response seen or fitted, relative to the assay's reference. As for `CC[C@H](C)[C@H](NC(=O)[C@@H](NC(=O)[C@H](CC(=O)O)NC(=O)[C@H](CC(C)C)NC(=O)[C@H](CC(C)C)NC(=O)[C@H](CC(C)C)NC(=O)[C@H](CCCNC(=N)N)NC(=O)[C@H](CC(N)=O)NC(=O)[C@H](CC(N)=O)NC(=O)[C@H](C)NC(=O)[C@H](C)NC(=O)[C@H](CCC(N)=O)NC(=O)[C@H](CCC(N)=O)NC(=O)[C@H](CCCCN)NC(=O)[C@H](CCC(=O)O)NC(=O)[C@H](CCCCN)NC(=O)[C@H](CCC(=O)O)NC(=O)[C@H](CCC(N)=O)NC(=O)[C@H](CCCCN)NC(=O)[C@H](CCC(=O)O)NC(=O)[C@@H](NC(=O)[C@H](CCC(=O)O)NC(=O)[C@@H](NC(=O)[C@H](CCSC)NC(=O)[C@H](CCCCN)NC(=O)[C@H](CCCNC(=N)N)NC(=O)[C@H](CC(C)C)NC(=O)[C@H](CC(C)C)NC(=O)[C@H](CC(N)=O)NC(=O)[C@@H](NC(=O)[C@@H]1CCCN1C(=O)[C@H](CC(C)C)NC(=O)[C@H](CC(=O)O)NC(=O)[C@@H](NC(=O)[C@H](CO)NC(=O)[C@@H](NC(=O)[C@@H]1CCCN1C(=O)[C@@H]1CCCN1C(=O)CNC(=O)[C@@H]1CCC(=O)N1)[C@@H](C)CC)[C@@H](C)CC)[C@@H](C)CC)[C@@H](C)CC)[C@@H](C)CC)[C@@H](C)O)C(N)=O` [compound 37], the values for the Emax in experiment [1] and in experiment [2] were 5% and 51%, respectively.
`CC[C@H](C)[C@H](NC(=O)[C@@H](NC(=O)[C@H](CC(=O)O)NC(=O)[C@H](CC(C)C)NC(=O)[C@H](CC(C)C)NC(=O)[C@H](CC(C)C)NC(=O)[C@H](C)NC(=O)[C@H](CC(N)=O)NC(=O)[C@H](CC(N)=O)NC(=O)[C@H](C)NC(=O)[C@H](C)NC(=O)[C@H](CCC(N)=O)NC(=O)[C@H](CCC(N)=O)NC(=O)[C@H](CCCCN)NC(=O)[C@H](CCC(=O)O)NC(=O)[C@H](CCCCN)NC(=O)[C@H](CCC(=O)O)NC(=O)[C@H](CCC(N)=O)NC(=O)[C@H](CCCCN)NC(=O)[C@H](CCC(=O)O)NC(=O)[C@@H](NC(=O)[C@H](CCC(=O)O)NC(=O)[C@@H](NC(=O)[C@H](CCSC)NC(=O)[C@H](CCCCN)NC(=O)[C@H](CCCNC(=N)N)NC(=O)[C@H](CC(C)C)NC(=O)[C@H](CC(C)C)NC(=O)[C@H](Cc1c[nH]cn1)NC(=O)[C@H](Cc1ccccc1)NC(=O)[C@@H]1CCCN1C(=O)[C@H](CC(C)C)NC(=O)[C@H](CC(=O)O)NC(=O)[C@@H](NC(=O)[C@H](CO)NC(=O)[C@@H](NC(=O)[C@@H]1CCCN1C(=O)[C@@H]1CCCN1C(=O)CNC(=O)[C@@H]1CCC(=O)N1)[C@@H](C)CC)[C@@H](C)CC)[C@@H](C)CC)[C@@H](C)CC)[C@@H](C)O)C(N)=O` [compound 228]: the Emax in experiment [1] and in experiment [2] was 100% throughout.
For the molecule `CC[C@H](C)[C@H](NC(=O)[C@@H](NC(=O)[C@H](CC(=O)O)NC(=O)[C@H](CC(C)C)NC(=O)[C@H](CC(C)C)NC(=O)[C@H](CC(C)C)NC(=O)[C@H](CCCNC(=N)N)NC(=O)[C@H](CC(N)=O)NC(=O)[C@H](CC(N)=O)NC(=O)[C@H](C)NC(=O)[C@H](C)NC(=O)[C@H](CCC(N)=O)NC(=O)[C@H](CCC(N)=O)NC(=O)[C@H](CCCCN)NC(=O)[C@H](CCC(=O)O)NC(=O)[C@H](CCCCN)NC(=O)[C@H](CCC(=O)O)NC(=O)[C@H](CCC(N)=O)NC(=O)[C@H](CCCCN)NC(=O)[C@H](CCC(=O)O)NC(=O)[C@@H](NC(=O)[C@H](CCC(=O)O)NC(=O)[C@@H](NC(=O)[C@H](CCSC)NC(=O)[C@H](CCCCN)NC(=O)[C@H](CCCNC(=N)N)NC(=O)[C@H](CC(C)C)NC(=O)[C@H](CC(C)C)NC(=O)[C@@H](NC(=O)[C@H](Cc1ccc(O)cc1)NC(=O)[C@@H]1CCCN1C(=O)[C@H](CC(C)C)NC(=O)[C@H](CC(=O)O)NC(=O)[C@@H](NC(=O)[C@H](CO)NC(=O)[C@@H](NC(=O)[C@@H]1CCCN1C(=O)[C@@H]1CCCN1C(=O)CNC(=O)[C@@H]1CCC(=O)N1)[C@@H](C)CC)[C@@H](C)CC)[C@@H](C)CC)[C@@H](C)CC)[C@@H](C)CC)[C@@H](C)O)C(N)=O` [compound 204], the Emax in experiment [1] worked out at 74%; in experiment [2] it was 93%.
